The chains behind the UniProt entries cited, without tags or fusion partners. Residues count along the entry.
UniProt Q5VWK5, 24-629 limits assumed: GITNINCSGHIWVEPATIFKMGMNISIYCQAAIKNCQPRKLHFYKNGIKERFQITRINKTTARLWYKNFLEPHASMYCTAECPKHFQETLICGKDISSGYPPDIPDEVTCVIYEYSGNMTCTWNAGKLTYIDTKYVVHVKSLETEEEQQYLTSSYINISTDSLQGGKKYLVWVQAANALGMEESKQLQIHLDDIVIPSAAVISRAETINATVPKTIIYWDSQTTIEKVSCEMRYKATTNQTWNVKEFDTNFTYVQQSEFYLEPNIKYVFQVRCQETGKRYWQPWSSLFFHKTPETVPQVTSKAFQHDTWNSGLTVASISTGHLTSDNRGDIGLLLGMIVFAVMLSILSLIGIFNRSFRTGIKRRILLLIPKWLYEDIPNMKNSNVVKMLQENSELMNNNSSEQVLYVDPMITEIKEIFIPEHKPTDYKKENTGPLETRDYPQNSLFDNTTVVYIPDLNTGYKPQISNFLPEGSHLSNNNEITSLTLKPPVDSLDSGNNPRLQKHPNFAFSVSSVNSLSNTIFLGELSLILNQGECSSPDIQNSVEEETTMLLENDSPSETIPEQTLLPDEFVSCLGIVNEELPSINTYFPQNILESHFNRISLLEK

In patent US11845808B2, “Peptide inhibitors of interleukin-23 receptor and their use to treat inflammatory diseases” (Janssen Biotech, Inc., priority 2020, dated 2023):

Tests used:
[1] = target: IL-23 stimulated phosphorylated STAT3 in PBMCs (Homo sapiens, UniProt Q5VWK5); test: PBMC pSTAT3 assay; assay type: cell-based; conditions: PBMCs from healthy donors, IL-23 5 ng/mL, 30 minutes
[2] = target: IL-23 induced IFNγ in natural killer (NK) cells (Homo sapiens, UniProt Q5VWK5); test: NK cell based assay (IL-23/IL-18 induced IFNγ); conditions: IL-23 at EC50 to EC75 and IL-18 10 ng/mL, IFNγ in supernatant after 20 to 24 hours
From the text: Example 3: NK Cell Based Assay

[3] = Stability in simulated intestinal fluid (SIF); assay type: in vitro ADME; conditions: 100 fold dilution of standard SIF concentration, 37° C., 20 μM
Summary of the method: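 Peptides at 20 μM final were incubated at 37 °C in SIF (potassium phosphate with pancreatin, pH 6.8), and reactions were quenched with acetonitrile/1% formic acid at time points from 0 min to 24 h. Percent remaining relative to time 0 was determined by LC-MS/MS against an internal standard, and half-life came from a first-order decay fit.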

[4] = Stability in human fecal homogenate; assay type: in vitro ADME; conditions: 20% human fecal homogenate, 37° C., 20 μM
[5] = Stability in rat plasma; assay type: in vitro ADME; conditions: SD rat plasma, 37° C., 20 μM
[6] = Stability in cynomolgus monkey fecal homogenate; assay type: in vitro ADME; conditions: 20% cynomolgus monkey fecal homogenate, 37° C., 20 μM

In the case of “Ac-[(D)Arg]-[Abu]-Q-T-W-Q-[Cys]-Phe[4-(2-aminoethoxy)]-[2-Nal]-[THP]-E-N-N-[(D)NMeTyr]-NH2 [Peptide 8]”, the IC50 [1] is reported as 1 nM.

In the case of “Ac-[(D)Arg]-[Cys]-N-T-[W(7-Me)]-[Lys(Ac)]-[aMeCys]-Phe[4-(2-aminoethoxy)]-[2-Nal]-[Acvc]-E-N-H-[Sarc]-NH2 [Peptide 233]”, the IC50 [1] is reported as 4.3 nM.

“Ac-[(D)Arg]-[Pen]-N-T-[W(7-Me)]-[Lys(Ac)]-[Pen]-Phe[4-(2-aminoethoxy)]-[2-Nal]-[Acvc]-E-N-[3Pal]-[Sarc]-NH2 [Peptide 235]” showed an IC50 [1] of 0.01 nM.

For “Ac-[(D)Arg]-[Pen]-N-T-[W(7-Me)]-[Lys(Ac)]-[Pen]-Phe[4-(2-aminoethoxy)]-[2-Nal]-[Acvc]-E-N-[(D)Arg]-[Sarc]-NH2 [Peptide 226]”, the IC50 [1] was 1.7 nM.

“Ac-[(D)Arg]-[Pen]-N-T-[W(7-Me)]-[Lys(Ac)]-[Pen]-Phe[4-(2-aminoethoxy)]-[2-Nal]-[THP]-E-N-H-[(D)Tyr]-NH2 [Peptide 206]” showed an IC50 [1] of 0.78 nM.

With “Ac-[(D)Arg]-[Pen]-N-T-[W(7-Me)]-[Lys(Ac)]-[Pen]-Phe[4-(2-aminoethoxy)]-[2-Nal]-[THP]-E-N-N-[(D)NMeTyr]-NH2 [Peptide 88]” the IC50 [1] was over 2000 nM.

“Ac-[(D)Arg]-[Pen]-N-T-[W(7-Me)]-[Lys(Ac)]-[Pen]-Phe[4-(2-aminoethoxy)]-[2-Nal]-[THP]-E-N-[3Pal]-[Sarc]-NH2 [Peptide 247]” showed an IC50 [1] of 0.0043 nM.

With “Ac-[(D)Arg]-[Pen]-N-T-[W(7-Me)]-[Lys(Ac)]-[Pen]-Phe[4-(2-aminoethoxy)]-[2-Nal]-[THP]-E-N-[3Pal]-[Sarc]-NH2 [Peptide 266]” the IC50 [1] was 0.81 nM.

For “Ac-[(D)Arg]-[Pen]-N-T-[W(7-Me)]-[Lys(Ac)]-[Pen]-Phe[4-(2-aminoethoxy)]-[2-Nal]-[THP]-E-N-[(1-Me)His]-NH2 [Peptide 166]”, the IC50 [1] was 8.9 nM.

Substance “Ac-[(D)Arg]-[Pen]-N-T-[W(7-Me)]-[Lys(Ac)]-[Pen]-Phe[4-(2-aminoethoxy)]-[2-Nal]-[THP]-E-N-[(5Pyal)]-NH2 [Peptide 164]” has an IC50 [1] of 0.011 nM.

“Ac-[(D)Arg]-[Pen]-N-T-[W(7-Me)]-[Lys(Ac)]-[Pen]-Phe[4-(2-aminoethoxy)]-[2-Nal]-[THP]-E-N-[(D)His]-NH2 [Peptide 92]” gave an IC50 [1] of 2.8 nM.

Substance “Ac-[(D)Arg]-[Pen]-N-T-[W(7-Me)]-[Lys(Ac)]-[Pen]-Phe[4-(2-aminoethoxy)]-[2-Nal]-[THP]-E-N-[THP]-[(D)Pro]-NH2 [Peptide 223]” has an IC50 [1] of 13 nM.

“Ac-[(D)Arg]-[Pen]-N-T-[W(7-Me)]-[Lys(Ac)]-[Pen]-Phe[4-(2-aminoethoxy)]-[2-Nal]-[a-MeLys]-E-N-H-[(D)NMeTyr]-NH2 [Peptide 83]” showed an IC50 [1] of 1.7 nM.

Substance “Ac-[(D)Arg]-[Pen]-Q-T-W-Q-[Pen]-Phe[4-(2-aminoethoxy)]-[2-Nal]-[THP]-E-N-N-[(D)NMeTyr]-NH2 [Peptide 9]” has an IC50 [1] of 24 nM.

“Ac-[(D)Arg]-[Pen]-Q-T-W-Q-[Pen]-Phe[4-(2-aminoethoxy)]-[2-Nal]-[THP]-[aMeGlu]-N-F-[(D)NMeTyr]-NH2 [Peptide 10]” showed an IC50 [1] of 4.3 nM.

Work on “Ac-[Pen]-N -T-[W(7-Me]-[Lys(Ac)]-[Pen]-Phe[4-(2-aminoethoxy)]-[2-Nal]-[a-Me-Lys]-[Lys(Ac)]-N-[3Pal]-[(D)NMeTyr]-NH2 [Peptide 168]” yielded an IC50 [1] of 0.019 nM.

“Ac-[Pen]-N-T-[W(7-Me)]-[(D)Tyr]-[Pen]-Phe[4-(2-aminoethoxy)]-[2-Nal]-[a-MeLys]-[Lys(Ac)]-N-[(D)Lys]-[(D)NMeTyr]-NH2 [Peptide 207]” showed an IC50 [1] of 3.3 nM.

For “Ac-[Pen]-N-T-[W(7-Me)]-[Cit]-[Pen]-Phe[4-(2-aminoethoxy)]-[2-Nal]-[aMeLeu]-[Lys(Ac)]-N-[(D)His]-NH2 [Peptide 85]”, the IC50 [1] was 3 nM.

“Ac-[Pen]-N-T-[W(7-Me)]-[Cit]-[Pen]-Phe[4-(2-aminoethoxy)]-[2-Nal]-[aMeLeu]-[Lys(Ac)]-N-[(D)Lys]-[(D)NMeTyr]-NH2 [Peptide 216]” gave an IC50 [1] of 1.8 nM.

With “Ac-[Pen]-N-T-[W(7-Me)]-[Lys(Ac)]-[Pen]-Phe[4-(2-aminoethoxy)]-[2-Nal]-[Acvc]-E-N-Phe[4-NH2]-[Sarc]-NH2 [Peptide 228]” the IC50 [1] was 17 nM.

“Ac-[Pen]-N-T-[W(7-Me)]-[Lys(Ac)]-[Pen]-Phe[4-(2-aminoethoxy)]-[2-Nal]-[a-Me-Lys]-[Lys(Ac)]-N-[(5Pyal)]-NH2 [Peptide 165]” showed an IC50 [1] of 0.0053 nM.

Work on “Ac-[Pen]-N-T-[W(7-Me)]-[Lys(Ac)]-[Pen]-Phe[4-(2-aminoethoxy)]-[2-Nal]-[a-MeLys]-[Lys(Ac)]-N-F-[(D)NMeTyr]-NH2 [Peptide 58]” yielded an IC50 [1] of 19 nM.

With “Ac-[Pen]-N-T-[W(7-Me)]-[Lys(Ac)]-[Pen]-Phe[4-(2-aminoethoxy)]-[2-Nal]-[a-MeLys]-[Lys(Ac)]-N-H-[(D)NMeTyr]-NH2 [Peptide 82]” the IC50 [1] was 0.98 nM.

“Ac-[Pen]-N-T-[W(7-Me)]-[Lys(Ac)]-[Pen]-Phe[4-(2-aminoethoxy)]-[2-Nal]-[a-MeLys]-[Lys(Ac)]-N-N-[(D)NMeTyr]-NH2 [Peptide 89]” gave an IC50 [1] of 6.9 nM.

Work on “Ac-[Pen]-N-T-[W(7-Me)]-[Lys(Ac)]-[Pen]-Phe[4-(2-aminoethoxy)]-[2-Nal]-[a-MeLys]-[Lys(Ac)]-N-Phe[4-aminomethyl]-[(D)NMeTyr]-NH2 [Peptide 84]” yielded an IC50 [1] of 13 nM.

Work on “Ac-[Pen]-N-T-[W(7-Me)]-[Lys(Ac)]-[Pen]-Phe[4-(2-aminoethoxy)]-[2-Nal]-[a-MeLys]-[Lys(Ac)]-N-[3Pal]-[(D)NMeTyr]-NH2 [Peptide 246]” yielded an IC50 [1] of 0.33 nM.

For “Ac-[Pen]-N-T-[W(7-Me)]-[Lys(Ac)]-[Pen]-Phe[4-(2-aminoethoxy)]-[2-Nal]-[a-MeLys]-[Lys(Ac)]-N-[(D)Arg]-[Sarc]-NH2 [Peptide 238]”, the IC50 [1] was 8.9 nM.

In the case of “Ac-[Pen]-N-T-[W(7-Me)]-[Lys(Ac)]-[Pen]-Phe[4-(2-aminoethoxy)]-[2-Nal]-[a-MeLys]-[Lys(Ac)]-N-[(D)His]-NH2 [Peptide 86]”, the IC50 [1] is reported as 7.2 nM.

“Ac-[Pen]-N-T-[W(7-Me)]-[Lys(Ac)]-[Pen]-Phe[4-(2-aminoethoxy)]-[2-Nal]-[a-MeLys]-[Lys(Ac)]-N-[(D)Orn]-[(D)NMeTyr]-NH2 [Peptide 203]” showed an IC50 [1] of 2.9 nM.

In the case of “Ac-[Pen]-N-T-[W(7-Me)]-[Lys(Ac)]-[Pen]-Phe[4-(2-aminoethoxy)]-[3-Quin]-[a-MeLys]-[Lys(Ac)]-N-[(D)Leu)]-[Sarc]-NH2 [Peptide 2]”, the IC50 [2] is reported as 2.11 nM, the “SIF t½” value [3] is reported as over 24.0 h and the “t½: Human Feces anaerobic” value [4] is reported as over 24.0 h. For the same substance, the “t½: Rat Plasma EDTA” value [5] was over 24.0 h and the “t½: Monkey Feces anaerobic” value [6] was over 24.0 h.

For “Ac-[Pen]-N-T-[W(7-Me)]-[Lys(Ac)]-[Pen]-Phe[4-(2-aminoethoxy)]-[3-Quin]-[a-MeLys]-[Lys(Ac)]-N-[(D)Lys]-[Sarc]-NH2 [Peptide 7]”, the IC50 [2] was 2.62 nM, the “SIF t½” value [3] was over 24.0 h and the “t½: Human Feces anaerobic” value [4] was over 24.0 h. The “t½: Rat Plasma EDTA” value [5] was over 24.0 h and the “t½: Monkey Feces anaerobic” value [6] was over 24.0 h.

For “Ac-[Pen]-N-T-[W(7-Me)]-[Lys(Ac)]-[Pen]-Phe[4-(2-aminoethoxy)]-[W(6-C1)]-[a-MeLys]-[Lys(Ac)]-N-H-[Sarc]-NH2 [Peptide 41]”, the IC50 [2] was 1.51 nM, the “SIF t½” value [3] was over 24.0 h and the “t½: Human Feces anaerobic” value [4] was 21.5 h. For the same substance, the “t½: Rat Plasma EDTA” value [5] was over 24.0 h and the “t½: Monkey Feces anaerobic” value [6] was 15.4 h.

For “Ac-[Pen]-N-T-[W(7-Me)]-[Lys(Ac)]-[Pen]-Phe[4-(2-aminoethoxy)]-[W(7-nPr)]-[a-MeLys]-[Lys(Ac)]-N-H-[Sarc]-NH2 [Peptide 39]”, the IC50 [2] was 34.1 nM, the “SIF t½” value [3] was over 24.0 h and the “t½: Human Feces anaerobic” value [4] was 23.4 h. For the same substance, the “t½: Rat Plasma EDTA” value [5] was over 24.0 h and the “t½: Monkey Feces anaerobic” value [6] was 24 h.

For “Ac-[Pen]-N-T-[W(7-Me)]-[Lys(Ac)]-[Pen]-[Phe(4-CONH2)]-[2-Nal]-[THP]-E-N-H-[Sarc]-NH2 [Peptide 74]”, the IC50 [2] was 1.82 nM, the “SIF t½” value [3] was 14.6 h and the “t½: Human Feces anaerobic” value [4] was 6.1 h. For the same substance, the “t½: Rat Plasma EDTA” value [5] was over 24.0 h and the “t½: Monkey Feces anaerobic” value [6] was 17.5 h.

For “Ac-[Pen]-N-T-[W(7-Me)]-[Lys(Ac)]-[Pen]-[Phe(4-OMe)]-[2-Nal]-[THP]-E-N-H-[Sarc]-NH2 [Peptide 75]”, the IC50 [2] was 1.84 nM, the “SIF t½” value [3] was 15.4 h and the “t½: Human Feces anaerobic” value [4] was 7.2 h. The “t½: Rat Plasma EDTA” value [5] was 16.1 h and the “t½: Monkey Feces anaerobic” value [6] was 17 h.

In the case of “Ac-[Pen]-N-T-[W(7-Ph)]-[Lys(Ac)]-[Pen]-Phe[4-(2-aminoethoxy)]-[2-Nal]-[THP]-E-N-H-[(D)NMeTyr]-NH2 [Peptide 62]”, the IC50 [2] is reported as 2.1 nM, the “SIF t½” value [3] is reported as over 24.0 h and the “t½: Human Feces anaerobic” value [4] is reported as over 24.0 h. For the same substance, the “t½: Rat Plasma EDTA” value [5] was over 24.0 h and the “t½: Monkey Feces anaerobic” value [6] was over 24.0 h.

In the case of “Ac-[Pen]-N-T-[W(7-Ph)]-[Lys(Ac)]-[Pen]-Phe[4-(2-aminoethoxy)]-[3Quin]-[THP]-E-N-[(D)Leu]-[Sarc]-NH2 [Peptide 13]”, the IC50 [2] is reported as 2.37 nM, the “SIF t½” value [3] is reported as over 24.0 h and the “t½: Human Feces anaerobic” value [4] is reported as over 24.0 h. For the same substance, the “t½: Rat Plasma EDTA” value [5] was 7.6 h and the “t½: Monkey Feces anaerobic” value [6] was over 24.0 h.

With “Ac-[Pen]-N-T-[W(7-Ph)]-[Lys(Ac)]-[Pen]-Phe[4-(2-aminoethoxy)]-[3Quin]-[a-MeLys]-[Lys(Ac)]-N-[(D)Leu]-[Sarc]-NH2 [Peptide 14]” the IC50 [2] was 2.8 nM, the “SIF t½” value [3] was over 24.0 h and the “t½: Human Feces anaerobic” value [4] was over 24.0 h. For the same substance, the “t½: Rat Plasma EDTA” value [5] was over 24.0 h and the “t½: Monkey Feces anaerobic” value [6] was over 24.0 h.

For “Ac-[Pen]-S-T-[W(7-Ph)]-[Lys(Ac)]-[Pen]-Phe[4-(2-aminoethoxy)]-[2-Nal]-[THP]-E-S-H-[Sarc]-NH2 [Peptide 61]”, the IC50 [2] was 2.23 nM, the “SIF t½” value [3] was over 24.0 h and the “t½: Human Feces anaerobic” value [4] was 19.5 h. For the same substance, the “t½: Rat Plasma EDTA” value [5] was over 24.0 h and the “t½: Monkey Feces anaerobic” value [6] was 15.7 h.
